{"sequences": {"note": "The chains behind the UniProt entries cited, without tags or fusion partners.", "UniProt Q92736, whole entry": "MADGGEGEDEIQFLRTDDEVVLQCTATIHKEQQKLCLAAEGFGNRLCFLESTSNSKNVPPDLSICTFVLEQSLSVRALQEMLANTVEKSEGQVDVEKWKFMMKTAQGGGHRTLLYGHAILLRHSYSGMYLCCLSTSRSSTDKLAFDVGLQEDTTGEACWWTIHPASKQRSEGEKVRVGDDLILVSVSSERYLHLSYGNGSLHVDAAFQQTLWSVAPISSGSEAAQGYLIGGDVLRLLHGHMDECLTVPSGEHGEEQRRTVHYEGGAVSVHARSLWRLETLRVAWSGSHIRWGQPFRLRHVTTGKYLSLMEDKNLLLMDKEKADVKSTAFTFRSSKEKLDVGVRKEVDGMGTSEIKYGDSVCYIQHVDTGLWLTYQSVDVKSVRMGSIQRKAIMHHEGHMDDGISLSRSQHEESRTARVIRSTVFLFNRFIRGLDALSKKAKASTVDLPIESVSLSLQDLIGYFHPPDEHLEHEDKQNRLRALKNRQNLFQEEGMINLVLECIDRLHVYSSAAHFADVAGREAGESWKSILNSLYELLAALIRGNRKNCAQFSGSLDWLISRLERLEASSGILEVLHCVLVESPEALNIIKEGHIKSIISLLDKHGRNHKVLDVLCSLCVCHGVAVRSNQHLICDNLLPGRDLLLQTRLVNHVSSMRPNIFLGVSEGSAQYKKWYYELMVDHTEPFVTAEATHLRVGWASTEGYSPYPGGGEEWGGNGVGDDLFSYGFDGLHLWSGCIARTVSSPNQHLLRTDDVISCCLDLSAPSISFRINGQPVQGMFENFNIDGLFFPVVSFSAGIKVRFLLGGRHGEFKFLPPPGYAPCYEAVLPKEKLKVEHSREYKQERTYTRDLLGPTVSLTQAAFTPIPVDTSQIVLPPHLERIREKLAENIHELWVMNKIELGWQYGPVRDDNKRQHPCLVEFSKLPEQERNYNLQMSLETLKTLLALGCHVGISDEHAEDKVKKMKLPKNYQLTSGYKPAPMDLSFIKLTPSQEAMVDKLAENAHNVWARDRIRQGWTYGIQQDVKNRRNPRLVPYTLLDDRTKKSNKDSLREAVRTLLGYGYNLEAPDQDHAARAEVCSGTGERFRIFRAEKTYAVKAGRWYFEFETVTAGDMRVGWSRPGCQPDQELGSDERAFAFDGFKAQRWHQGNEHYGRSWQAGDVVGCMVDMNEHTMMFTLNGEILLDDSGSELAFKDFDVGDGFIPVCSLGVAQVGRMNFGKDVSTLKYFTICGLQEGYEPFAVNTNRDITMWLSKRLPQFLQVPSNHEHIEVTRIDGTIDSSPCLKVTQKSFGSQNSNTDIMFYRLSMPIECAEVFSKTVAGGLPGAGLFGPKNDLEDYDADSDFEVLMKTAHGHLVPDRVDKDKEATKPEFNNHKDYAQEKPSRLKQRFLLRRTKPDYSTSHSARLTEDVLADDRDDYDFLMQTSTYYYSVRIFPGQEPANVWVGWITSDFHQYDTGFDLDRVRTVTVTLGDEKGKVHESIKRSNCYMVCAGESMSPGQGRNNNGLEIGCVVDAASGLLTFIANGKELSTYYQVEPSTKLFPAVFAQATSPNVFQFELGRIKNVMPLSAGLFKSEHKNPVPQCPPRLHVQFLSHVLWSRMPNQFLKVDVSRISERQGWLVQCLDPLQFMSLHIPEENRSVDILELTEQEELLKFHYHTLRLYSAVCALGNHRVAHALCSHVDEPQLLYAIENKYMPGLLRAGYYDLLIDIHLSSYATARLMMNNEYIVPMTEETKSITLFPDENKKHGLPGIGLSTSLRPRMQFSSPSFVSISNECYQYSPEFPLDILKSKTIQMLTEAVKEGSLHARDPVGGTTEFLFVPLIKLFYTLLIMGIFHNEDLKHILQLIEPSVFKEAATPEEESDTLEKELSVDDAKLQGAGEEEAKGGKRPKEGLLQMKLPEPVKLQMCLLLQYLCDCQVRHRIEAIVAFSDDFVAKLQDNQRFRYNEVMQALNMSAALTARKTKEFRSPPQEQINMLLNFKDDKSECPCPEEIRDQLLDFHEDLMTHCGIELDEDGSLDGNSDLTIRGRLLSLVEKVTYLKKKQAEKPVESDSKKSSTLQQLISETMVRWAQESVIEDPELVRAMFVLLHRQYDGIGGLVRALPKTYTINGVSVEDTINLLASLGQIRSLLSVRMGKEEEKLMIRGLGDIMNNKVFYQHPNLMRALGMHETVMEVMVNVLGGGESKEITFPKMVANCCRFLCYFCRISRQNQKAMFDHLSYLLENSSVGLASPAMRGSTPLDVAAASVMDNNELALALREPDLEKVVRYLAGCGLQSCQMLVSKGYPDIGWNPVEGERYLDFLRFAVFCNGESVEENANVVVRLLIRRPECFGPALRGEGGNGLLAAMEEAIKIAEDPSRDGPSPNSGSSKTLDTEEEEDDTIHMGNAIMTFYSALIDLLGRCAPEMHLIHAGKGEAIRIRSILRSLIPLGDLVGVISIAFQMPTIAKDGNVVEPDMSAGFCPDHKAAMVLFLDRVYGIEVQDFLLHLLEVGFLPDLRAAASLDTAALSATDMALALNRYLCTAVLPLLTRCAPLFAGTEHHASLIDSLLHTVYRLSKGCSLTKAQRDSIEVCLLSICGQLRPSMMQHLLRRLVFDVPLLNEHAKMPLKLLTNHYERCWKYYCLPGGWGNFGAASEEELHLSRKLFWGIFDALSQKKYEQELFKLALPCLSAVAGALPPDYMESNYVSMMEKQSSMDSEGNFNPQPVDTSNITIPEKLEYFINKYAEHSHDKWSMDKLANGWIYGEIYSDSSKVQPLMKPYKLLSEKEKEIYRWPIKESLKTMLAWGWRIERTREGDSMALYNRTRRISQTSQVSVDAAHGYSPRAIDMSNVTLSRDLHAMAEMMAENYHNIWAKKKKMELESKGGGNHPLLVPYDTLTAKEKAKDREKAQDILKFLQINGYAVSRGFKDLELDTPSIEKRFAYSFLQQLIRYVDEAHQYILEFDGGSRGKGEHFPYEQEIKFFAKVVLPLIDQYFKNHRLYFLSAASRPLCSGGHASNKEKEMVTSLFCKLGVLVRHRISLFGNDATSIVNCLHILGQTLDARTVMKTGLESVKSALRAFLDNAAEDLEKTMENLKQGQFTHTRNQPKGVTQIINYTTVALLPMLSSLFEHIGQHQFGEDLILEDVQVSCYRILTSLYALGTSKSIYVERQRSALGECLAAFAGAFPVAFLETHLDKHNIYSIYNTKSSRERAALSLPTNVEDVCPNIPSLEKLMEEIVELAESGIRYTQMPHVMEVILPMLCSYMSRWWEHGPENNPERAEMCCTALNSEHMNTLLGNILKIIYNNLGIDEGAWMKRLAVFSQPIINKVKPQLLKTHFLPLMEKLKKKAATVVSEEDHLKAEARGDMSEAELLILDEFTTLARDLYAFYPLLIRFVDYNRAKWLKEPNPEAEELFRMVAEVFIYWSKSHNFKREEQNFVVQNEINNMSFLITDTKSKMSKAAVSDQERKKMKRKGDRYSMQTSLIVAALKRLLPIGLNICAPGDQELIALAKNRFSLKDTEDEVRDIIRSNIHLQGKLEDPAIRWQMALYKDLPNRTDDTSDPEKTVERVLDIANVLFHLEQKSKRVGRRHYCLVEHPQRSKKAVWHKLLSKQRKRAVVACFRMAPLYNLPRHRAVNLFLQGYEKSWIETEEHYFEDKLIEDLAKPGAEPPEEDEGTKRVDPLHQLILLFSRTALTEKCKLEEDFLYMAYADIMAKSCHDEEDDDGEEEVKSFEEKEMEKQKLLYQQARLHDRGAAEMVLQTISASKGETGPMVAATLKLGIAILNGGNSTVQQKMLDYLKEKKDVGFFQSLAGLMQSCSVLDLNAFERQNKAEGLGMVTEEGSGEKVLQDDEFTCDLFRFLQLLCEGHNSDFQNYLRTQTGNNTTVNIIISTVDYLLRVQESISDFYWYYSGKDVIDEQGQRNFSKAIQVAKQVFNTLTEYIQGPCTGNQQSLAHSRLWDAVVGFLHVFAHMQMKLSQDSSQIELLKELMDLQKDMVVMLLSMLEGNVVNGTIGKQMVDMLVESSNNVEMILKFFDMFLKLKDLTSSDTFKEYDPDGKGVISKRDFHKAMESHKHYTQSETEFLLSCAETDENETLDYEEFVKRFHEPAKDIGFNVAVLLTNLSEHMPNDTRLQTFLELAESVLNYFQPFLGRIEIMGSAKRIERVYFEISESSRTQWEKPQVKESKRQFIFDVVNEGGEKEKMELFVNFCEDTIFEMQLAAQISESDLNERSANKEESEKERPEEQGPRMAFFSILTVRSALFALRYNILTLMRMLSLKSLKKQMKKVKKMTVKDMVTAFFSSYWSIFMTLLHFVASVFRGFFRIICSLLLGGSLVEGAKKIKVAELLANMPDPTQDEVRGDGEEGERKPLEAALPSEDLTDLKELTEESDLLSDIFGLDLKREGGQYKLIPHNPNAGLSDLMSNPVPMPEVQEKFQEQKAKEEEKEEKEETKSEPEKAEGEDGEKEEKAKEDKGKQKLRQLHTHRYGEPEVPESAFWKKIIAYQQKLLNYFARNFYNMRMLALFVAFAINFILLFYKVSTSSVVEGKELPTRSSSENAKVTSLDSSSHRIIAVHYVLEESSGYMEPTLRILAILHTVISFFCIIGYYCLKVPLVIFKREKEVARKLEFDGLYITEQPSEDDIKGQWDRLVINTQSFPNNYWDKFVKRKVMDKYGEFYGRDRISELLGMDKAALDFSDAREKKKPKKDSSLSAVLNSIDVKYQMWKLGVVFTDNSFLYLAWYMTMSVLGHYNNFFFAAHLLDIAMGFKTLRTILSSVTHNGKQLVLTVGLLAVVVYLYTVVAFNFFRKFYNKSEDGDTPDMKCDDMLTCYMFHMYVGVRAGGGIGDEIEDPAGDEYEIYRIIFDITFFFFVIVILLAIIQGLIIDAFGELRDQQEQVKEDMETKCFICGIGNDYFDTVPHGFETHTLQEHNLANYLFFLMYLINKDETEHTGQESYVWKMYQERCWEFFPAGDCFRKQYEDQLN"}, "source": "patent US20230399324A1", "about": "“AGENTS FOR TREATING DISORDERS INVOLVING RYANODINE RECEPTORS” (ARMGO Pharma, Inc., priority 2020, published 2023)", "target": "RyR2 (Homo sapiens, UniProt Q92736)", "experiment": "biochemical"}
{"smiles": "COc1ccc2c(c1)CN(C)CCS2", "note": "[Compound S107, reference compound]", "values": [{"measurement": "EC50", "value": 155, "unit": "nM"}]}
